Measurements published in ChEMBL document CHEMBL1144877, “A comparison of phosphonothioic acids with phosphonic acids as phosphatase inhibitors” (2003).

Tests used:
[1] = dissociation constant was determined
[2] = Inhibitory activity against Serine/Threonine Protein Phosphatase (PP2C)
[3] = Inhibitory activity against Serine/Threonine Protein phosphatase 2C (PP2C)

## O=P(O)(O)Oc1ccccc1
[1]
  pKa: 6.2

## O=C(O)c1cccc2ccc(CP(=O)(O)O)cc12
[2]
  Ki: 48 µM

## O=C(O)c1cccc2ccc(CP(O)(O)=S)cc12
[3]
  Ki: 15 µM
